Measured values from ChEMBL document CHEMBL2331395, “Natural product coumarins that inhibit human carbonic anhydrases” (Bioorg Med Chem, 2013).

Legend:
[1] = target: Carbonic anhydrase 12 (Homo sapiens, UniProt O43570); experiment: Inhibition of human carbonic anhydrase 12 preincubated for 6 hrs by CO2 hydration stopped-flow assay
[2] = target: Carbonic anhydrase 9 (Homo sapiens, UniProt Q16790); experiment: Inhibition of human carbonic anhydrase 9 preincubated for 6 hrs by CO2 hydration stopped-flow assay
Outline: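 Recombinant enzymes were used at 8.6 nM for CA II and 6.9 nM for CA IX. Each was preincubated with inhibitor for 6 h at room temperature. CO2 hydration was followed for 10-100 s by phenol red (0.2 mM) absorbance in 10 mM Hepes pH 7.5 with 0.1 M NaClO4. The substrate was saturated CO2 water at 20 °C, and inhibitor dilutions went down to 1 nM. IC50 was fitted by non-linear least squares at 1.7 mM CO2 and converted to Ki by Cheng-Prusoff, from three determinations.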

O=c1ccc2ccccc2o1 [COUMARIN]
Ki [1]: > 1 mM | Ki [2]: > 1 mM
